Measured values taken from patent publication US10376553B2, “Pharmaceutical composition for preventing and treating chronic obstructive lung disease containing, as active ingredient, Magnoliae flos extract, fraction, or active fraction thereof” (KOREA RESEARCH INSTITUTE OF BIOSCIENCE AND BIOTECHNOLOGY, priority 2015, dated 2019).

System: H292 cells
Test: Cytotoxicity (CCK-8 cell viability) of the compounds of Magnoliae flos in H292 cells
Format: cell-based, human
Conditions: 24 h, vs 0.2% DMSO control = 100%
Method: Then, 10 μl of the CCK-8 solution (Dojindo Laboratories, Japan) was mixed with 90 μl of the medium, and 100 μl thereof was added per well. After incubation for a minimum of 30 minutes to a maximum of 4 hours, the absorbance was measured at 570 nm. The cell viability was calculated according to the following Equation 2 with a negative control group treated with 0.2% DMSO as a reference of 100%.
Cell viability=(Compound treated OD 570 nm value)×100/(Negative control group OD 570 nm value) [Equation 2]

| Structure (SMILES) | Viability of H292 cells (%, average ± deviation) (20 μM) | Viability of H292 cells (%, average ± deviation) (2.5 μM) | Viability of H292 cells (%, average ± deviation) (5 μM) | Viability of H292 cells (%, average ± deviation) (10 μM) |
| --- | --- | --- | --- | --- |
| COc1ccc([C@H]2OC[C@H]3[C@@H]2CO[C@@H]3c2ccc(OC)c(OC)c2)cc1OC [Compound S1, dimethylpinoresinol] | 114.08 ± 0.57% |  |  |  |
| COc1cc([C@H]2OC[C@H]3[C@@H]2CO[C@@H]3c2ccc3c(c2)OCO3)cc(OC)c1OC [Compound S6, aschantin] | 104.19 ± 1.12% | 102.36 ± 2.79% | 104.19 ± 1.21% | 101.90 ± 1.26% |
| COc1cc([C@H]2OC[C@H]3[C@@H]2CO[C@@H]3c2cc(OC)c(OC)c(OC)c2)cc(OC)c1OC [Compound S3, dimethylliroresinol] | 102.12 ± 2.44% |  | 102.75 ± 2.89% | 101.84 ± 3.42% |
